Patent publication US6939893B2, “Method of reducing toxicity of anticancer agents” (priority 2002, dated 2005)

Tested on: normal nude mice
Conditions: parameters other than WBC; irinotecan 200 mg/kg, MSC 0.2 mg/mouse

CCc1c2c(nc3ccc(OC(=O)N4CCC(N5CCCCC5)CC4)cc13)-c1cc3c(c(=O)n1C2)COC(=O)[C@]3(O)CC [Irinotecan, irinotecan]
effect on the other hematologic parameters: no significant effect
